Laboratory results published in the NIST ThermoML archive (doi:10.1016/j.fluid.2006.06.017).

Tests used:
[1] = Liquid; for vapor or sublimation pressure: Ebulliometric method (Recirculating still)
[2] = refractive index (Na D-line) (dimensionless); details: 298.15 K; 101.33 kPa; Liquid; Standard Abbe refractometry

CCCCOCCCC [dibutyl ether]
Details | mass density [kg/m3]
[1], 298.15 K, 101.33 kPa | 764.04

[1]
Details | vapor or sublimation pressure [kPa]
346.03 K | 10.04
350.43 K | 12.03
354.18 K | 14.02
359.28 K | 17.1
363.41 K | 20.02
363.51 K | 20
367.17 K | 23.04
370.72 K | 26.18
373.59 K | 28.95
376.37 K | 31.96
379.91 K | 35.96
383.09 K | 39.94
386.03 K | 43.95
388.78 K | 47.95
391.29 K | 51.85
393.59 K | 55.85
395.84 K | 59.9
398.48 K | 64.9
400.94 K | 69.92
403.18 K | 74.81
405.4 K | 79.93
407.43 K | 84.78
409.2 K | 89.87
411.12 K | 94.88
413.11 K | 100.12
413.67 K | 101.3

Details | refractive index
[2] | 1.397
